Experimental logP (octanol/water) values from OPERA 2.9

Values as listed in the OPERA 2.9 repository of K. Mansouri.

The octanol-water partition coefficient is given as log10; larger values mean a more lipophilic compound.
"via" names the databases from which the curators took the value.

C=C(C)c1ccc(Cl)cc1 [4-Chloro-alpha-methylstyrene] has logP (octanol/water) 4.62 (via OCHEM). CC1CCC(C(C)C)C(OC(=O)c2cccnc2)C1 (stereo not drawn) [5-Methyl-2-(propan-2-yl)cyclohexyl pyridine-3-carboxylate] is reported with logP (octanol/water) 5.09 (via eChemPortal). O=S(=O)([O-])CCN1CCN(CCO)CC1.[Na+] [Sodium 2-[4-(2-hydroxyethyl)piperazin-1-yl]ethanesulfonate] has logP (octanol/water) -3.88 (via eChemPortal). Listed for CCOC(=O)c1cnc2n(c1=O)CCC(C)C2 (stereo not drawn): logP (octanol/water) 0.66 (via OCHEM).

For Cc1cc(N)c(S(=O)(=O)O)cc1Cl [2-Amino-5-chloro-4-methylbenzenesulfonic acid] the data give logP (octanol/water) -0.83 (via eChemPortal). The entry for N#CCc1ccc(Cl)cc1F [4-Chloro-2-fluorophenylacetonitrile] lists logP (octanol/water) 2.34 (via eChemPortal). Cc1[nH]n2c(=O)c3ccccc3nc2c1N=Nc1ccc(Cl)cc1[N+](=O)[O-] is reported with logP (octanol/water) 2 (via eChemPortal). The entry for CC(CC(=O)c1ccc(-c2ccccc2)cc1)C(=O)O (stereo not drawn) [4-([1,1'-Biphenyl]-4-yl)-2-methyl-4-oxobutanoic acid] lists logP (octanol/water) 3.4 (via OCHEM).

For CC(C)c1ccc(S(=O)(=O)[O-])cc1.[K+] [Potassium 4-isopropylbenzenesulfonate] the data give logP (octanol/water) -1.4 (via eChemPortal). CC(O)(P(=O)(O)O)P(=O)(O)O [Etidronic acid] is reported with logP (octanol/water) -3.5 (via eChemPortal). For CCSSCC [Diethyl disulphide] the data give logP (octanol/water) 3 (via OCHEM). Listed for Nc1ncnc2c1ncn2C1OC(COP(=O)(O)OP(=O)([O-])OP(=O)([O-])O)C(O)C1O.[Na+].[Na+] (stereo not drawn) [Adenosine triphosphate disodium]: logP (octanol/water) -2.66 (via eChemPortal).

Listed for COC(=O)c1ccc(C(F)(F)F)nc1S(=O)(=O)[N-]C(=O)Nc1nc(OC)cc(OC)n1.[Na+] [Flupyrsulfuron-methyl sodium]: logP (octanol/water) 0.96 (via OCHEM). For O=Cc1cccc(Cl)c1Cl [2,3-Dichlorobenzaldehyde] the data give logP (octanol/water) 2.6 (via eChemPortal). The entry for CCCCCc1ccc(O)c2c1OC(C)(C)C1CCC(C)=CC21 (stereo not drawn) lists logP (octanol/water) 6.97 (via OCHEM). For CCN[P+]([O-])(OCC)O/N=C(/C#N)c1ccc([N+](=O)[O-])cc1 (stereo partly drawn) the data give logP (octanol/water) 1.76 (via OCHEM).

Listed for CC(=O)N[C@@H](C)C(N)=O [(2S)-2-(Acetylamino)propanamide]: logP (octanol/water) -1.52 (via OCHEM). Listed for Cc1ccc(C)c(C(C)c2ccccc2)c1 (stereo not drawn) [2-(1-Phenylethyl)-p-xylene]: logP (octanol/water) 5.39 (via OCHEM). For ClC(COCC(Cl)C(Cl)(Cl)Cl)C(Cl)(Cl)Cl (stereo not drawn) the data give logP (octanol/water) 5.3 (via OCHEM). The entry for COc1ccccc1N1CCN(CCC=Cc2ccc(F)cc2)CC1 lists logP (octanol/water) 4.7 (via OCHEM).

For OC[C@H]1O[C@H](O[C@]2(CCl)O[C@H](CCl)[C@@H](O)[C@@H]2O)[C@H](O)[C@@H](O)[C@H]1Cl [Sucralose] the data give logP (octanol/water) -0.51 (via eChemPortal). Listed for Nc1ccc(/N=N/c2ccc3c(S(=O)(=O)[O-])cccc3c2O)cc1.[Na+] [C.I. Acid Brown 4]: logP (octanol/water) -1.652 (via eChemPortal). The entry for O=S(=O)([O-])c1ccc(/N=N/c2c(O)ccc3ccccc23)cc1.[Na+] [C.I. Acid Orange 7] lists logP (octanol/water) -0.95 (via eChemPortal). CCN(CC)c1ccc(C(=C2C=CC(=[N+](CC)CC)C=C2)c2cc(O)c(S(=O)(=O)[O-])cc2S(=O)(=O)[O-])cc1.CCN(CC)c1ccc(C(=C2C=CC(=[N+](CC)CC)C=C2)c2cc(O)c(S(=O)(=O)[O-])cc2S(=O)(=O)[O-])cc1.[Ca+2] [Acid Blue 3] is reported with logP (octanol/water) -1.99 (via eChemPortal).

C=Cc1ccc(C=C)cc1 [1,4-Divinylbenzene] is reported with logP (octanol/water) 4.18 (via OCHEM). The entry for c1ccc(-c2cc3ccccc3[nH]2)cc1 [1H-Indole, 2-phenyl-] lists logP (octanol/water) 4.21 (via OCHEM). COc1ccccc1N1CCN(CCNC(=O)c2ccncn2)CC1 is reported with logP (octanol/water) 1.5 (via OCHEM). For O=C(Nc1ccc(S(=O)(=O)[O-])c2cc(S(=O)(=O)[O-])c(/N=N/c3ccc4c(CNc5nc(F)nc(F)c5Cl)cccc4c3S(=O)(=O)[O-])c(O)c12)c1ccccc1.[Li+].[Na+].[Na+] the data give logP (octanol/water) -0.2 (via eChemPortal).

Listed for CC(=O)[O-].COc1ccc(C(C[NH3+])C2(O)CCCCC2)cc1 (stereo not drawn): logP (octanol/water) -1.58 (via eChemPortal). FC(F)(F)c1nc2ccncc2[nH]1 [2-(Trifluoromethyl)-3H-imidazo[4,5-c]pyridine] has logP (octanol/water) 0.94 (via OCHEM). CC[N+](C)(CC)CC [N,N-diethyl-N-methylethanaminium] is reported with logP (octanol/water) -2.13 (via OCHEM). OCCCCCCO [1,6-Hexanediol] is reported with logP (octanol/water) -0.055 (via PubChem, eChemPortal).

For CN(C)CCN(Cc1ccccc1)c1ccccn1 [Tripelennamine] the data give logP (octanol/water) 3.3 (via PubChem). For CCCCCCCCCCCCCCCCCC[N+](C)(C)Cc1ccccc1.[Cl-] [N,N-Dimethyl-N-benzyl-N-octadecylammonium chloride] the data give logP (octanol/water) 3.23 (via PubChem). The entry for O=Cc1ccc(Br)cc1 [Benzaldehyde, 4-bromo-] lists logP (octanol/water) 2.75 (via OCHEM). For COC1CCC=CO1 (stereo not drawn) [3,4-Dihydro-2-methoxy-2H-pyran] the data give logP (octanol/water) 1.313 (via eChemPortal).

C[Si](C)(C)O[Si](C)(C)O[Si](C)(C)O[Si](C)(C)O[Si](C)(C)O[Si](C)(C)C [Tetradecamethylhexasiloxane] has logP (octanol/water) 9.419 (via eChemPortal).

The first 4 entries again:

{"smiles": "C=C(C)c1ccc(Cl)cc1", "name": "4-Chloro-alpha-methylstyrene", "logP (octanol/water)": "4.62", "via": "OCHEM"}
{"smiles": "CC1CCC(C(C)C)C(OC(=O)c2cccnc2)C1", "stereo": "stereo not drawn", "name": "5-Methyl-2-(propan-2-yl)cyclohexyl pyridine-3-carboxylate", "logP (octanol/water)": "5.09", "via": "eChemPortal"}
{"smiles": "O=S(=O)([O-])CCN1CCN(CCO)CC1.[Na+]", "name": "Sodium 2-[4-(2-hydroxyethyl)piperazin-1-yl]ethanesulfonate", "logP (octanol/water)": "-3.88", "via": "eChemPortal"}
{"smiles": "CCOC(=O)c1cnc2n(c1=O)CCC(C)C2", "stereo": "stereo not drawn", "logP (octanol/water)": "0.66", "via": "OCHEM"}

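The OPERA project collected these measurements from public sources as training and test data for property models. One number stands for a compound and property, with no spread given. Method, purity and exact conditions of the single measurements are not given. A value may pool stereoisomers or salt forms, and the file does not say which form was measured. Some upstream entries may be estimates or bounds without being marked so.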